{"sequences": {"note": "Protein sequences, listed by entry. Tags and fused reporters are not part of them.", "UniProt O00408, whole entry": "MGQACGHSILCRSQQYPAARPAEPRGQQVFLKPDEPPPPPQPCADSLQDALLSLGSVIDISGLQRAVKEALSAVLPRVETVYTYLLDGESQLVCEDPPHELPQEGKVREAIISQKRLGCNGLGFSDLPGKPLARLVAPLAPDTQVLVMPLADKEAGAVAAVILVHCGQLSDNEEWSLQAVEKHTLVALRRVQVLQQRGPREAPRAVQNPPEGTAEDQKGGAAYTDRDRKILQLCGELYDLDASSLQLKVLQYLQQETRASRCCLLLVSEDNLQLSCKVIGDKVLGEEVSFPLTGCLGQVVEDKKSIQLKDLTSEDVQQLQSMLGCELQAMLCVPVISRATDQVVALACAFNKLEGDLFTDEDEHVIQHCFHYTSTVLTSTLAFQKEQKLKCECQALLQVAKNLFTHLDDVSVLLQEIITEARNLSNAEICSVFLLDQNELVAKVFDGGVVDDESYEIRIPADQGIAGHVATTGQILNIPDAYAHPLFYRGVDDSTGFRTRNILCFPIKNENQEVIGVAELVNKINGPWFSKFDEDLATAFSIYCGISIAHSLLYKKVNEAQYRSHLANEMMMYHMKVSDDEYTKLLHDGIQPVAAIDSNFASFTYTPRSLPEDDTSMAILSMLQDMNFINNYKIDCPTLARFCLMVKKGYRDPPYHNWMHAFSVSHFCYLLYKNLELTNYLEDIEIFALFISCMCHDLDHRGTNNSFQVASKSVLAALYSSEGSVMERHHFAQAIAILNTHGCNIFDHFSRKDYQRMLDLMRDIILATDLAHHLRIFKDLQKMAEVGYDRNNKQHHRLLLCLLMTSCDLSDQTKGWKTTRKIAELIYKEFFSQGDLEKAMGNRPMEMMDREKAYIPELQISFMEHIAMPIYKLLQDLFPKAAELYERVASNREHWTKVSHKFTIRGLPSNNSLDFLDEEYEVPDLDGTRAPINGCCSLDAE"}, "source": "ChEMBL document CHEMBL6115015", "about": "“Design, synthesis and biological activity of 8-hydroxy modified urolithin A derivatives as phosphodiesterase type II (PDE2) inhibitors” (Bioorg Med Chem, 2025)", "molecular_target": "cGMP-dependent 3',5'-cyclic phosphodiesterase (Homo sapiens, UniProt O00408)", "settings": "time 50.0 min", "data": [{"smiles": "O=c1oc2cc(O)ccc2c2ccc(OCC3CCCO3)cc12", "note": "(stereo unspecified)", "values": [{"measurement": "Ratio IC50", "value": "> 20"}]}]}
